Measured melting point values of organic chemicals

Data: OPERA 2.9 data sets, kmansouri/OPERA on GitHub.

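The numbers are reported measurements, compiled and curated for the OPERA QSAR suite. A listed value is a point estimate from one report or more. How each value was measured is not recorded, so precision varies. A value may pool stereoisomers or salt forms, and the file does not say which form was measured. Some upstream entries may be estimates or bounds without being marked so.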

Melting points are in °C. "via" names the databases from which the curators took the value.

For CCCCCCCCCC(=O)OCC(C)(C)COC(=O)CCCCCCCCC [Decanoic acid, 2,2-dimethyl-1,3-propanediol diester] the data give melting point -2 °C (via eChemPortal).
For Cc1cc(C(=O)O)c(N)s1 [2-Amino-5-methylthiophene-3-carboxylic acid] the data give melting point 127 °C (via OCHEM).
For CCCCC(=O)OCC(=O)[C@H]1[C@H](C)C[C@H]2[C@@H]3C[C@H](F)C4=CC(=O)C=C[C@]4(C)[C@@]34O[C@H]4C[C@@]21C the data give melting point 102.3 °C (via eChemPortal).
For CC1(C)C(C=CC2=C(Cl)/C(=C/C=C3\N(CCCCS(=O)(=O)[O-])c4ccc5ccccc5c4C3(C)C)CCC2)=[N+](CCCCS(=O)(=O)[O-])c2ccc3ccccc3c21.[NH4+] the data give melting point 180 °C (via eChemPortal).
For CCC[C@H]1CC[C@H]([C@H]2CC[C@H](CC)CC2)CC1 the data give melting point 65.7 °C (via eChemPortal).
For Cc1ccc(-n2c(C)cc(C=O)c2C)cc1 [2,5-Dimethyl-1-(4-methylphenyl)-1H-pyrrole-3-carbaldehyde] the data give melting point 103 °C (via OCHEM).
For Cc1ccc(C(=O)CBr)cc1[N+](=O)[O-] [2-bromo-1-(4-methyl-3-nitrophenyl)ethanone] the data give melting point 46 °C (via OCHEM).
For O=C(O)C1(c2ccc(F)cc2)CCC1 [1-(4-Fluorophenyl)cyclobutane-1-carboxylic acid] the data give melting point 68 °C (via OCHEM).
For CC(C)(O)C#Cc1ccccn1 [2-Methyl-4-(pyridin-2-yl)but-3-yn-2-ol] the data give melting point 82.5 °C (via OCHEM).
For CCN(CC)c1ccc(S(N)(=O)=O)cc1N [3-amino-4-(diethylamino)benzenesulfonamide] the data give melting point 103 °C (via OCHEM).
For O=C(O)c1cn(-c2ccccc2)nc1-c1ccccc1 [1,3-diphenyl-1H-pyrazole-4-carboxylic acid] the data give melting point 203 °C (via OCHEM).
For COC(=O)C(=O)CC(=O)c1ccc(C)cc1 [methyl 4-(4-methylphenyl)-2,4-dioxobutanoate] the data give melting point 87 °C (via OCHEM).
For C#C[C@]1(O)CC[C@H]2[C@@H]3CC=C4CC5(CC[C@]4(C)[C@H]3CC[C@@]21C)OCCO5 the data give melting point 257 °C (via eChemPortal).
For O=C1c2c(O)ccc(Nc3ccccc3)c2C(=O)c2c([N+](=O)[O-])ccc(O)c21 [Disperse Blue 77] the data give melting point 230 °C (via eChemPortal).
For Cc1cn([C@H]2C[C@H](N=[N+]=[N-])[C@@H](CO)O2)c(=O)[nH]c1=O [3'-Azido-3'-deoxythymidine] the data give melting point 114 °C (via OCHEM, PubChem).
For Cc1cccc(C(N)=O)c1N [2-Amino-3-methylbenzamide] the data give melting point 146 °C (via OCHEM).
For NC(=O)CC1CCCC1 [2-Cyclopentylacetamide] the data give melting point 150 °C (via OCHEM).
For Cc1ccc(C)c2sc(N)nc12 [4,7-dimethyl-1,3-benzothiazol-2-amine] the data give melting point 152 °C (via OCHEM).
For O=C1CSc2ccc(C(=O)O)cc2N1 [3-oxo-3,4-dihydro-2H-1,4-benzothiazine-6-carboxylic acid] the data give melting point 252 °C (via OCHEM).
For COc1cccc(Nc2n[nH]c(=S)s2)c1 [5-(3-Methoxyanilino)-1,3,4-thiadiazole-2(3H)-thione] the data give melting point 209 °C (via OCHEM).
For N#CCc1coc(-c2ccccc2)n1 [(2-Phenyl-1,3-oxazol-4-yl)acetonitrile] the data give melting point 88 °C (via OCHEM).
For ClCc1nnc(-c2ccccc2)o1 [2-(chloromethyl)-5-phenyl-1,3,4-oxadiazole] the data give melting point 95 °C (via OCHEM).
For CC(C)C(=O)NC(N)=S [N-Carbamothioyl-2-methylpropanamide] the data give melting point 115 °C (via eChemPortal).
For O=C1NC(=O)N2CCCCC12 (stereo unspecified) [tetrahydroimidazo[1,5-a]pyridine-1,3(2H,5H)-dione] the data give melting point 115 °C (via OCHEM).
For Cn1c(N)c(NC=O)c(=O)n(C)c1=O the data give melting point 252 °C (via eChemPortal).
For Cc1nn(C)c(O)c1C(O)c1ccc(C(F)(F)F)cc1S(C)(=O)=O (stereo unspecified) [Pyrasulfotole] the data give melting point 201 °C (via PubChem, eChemPortal).
For Brc1cnc2ncnn2c1 [6-Bromo[1,2,4]triazolo[1,5-a]pyrimidine] the data give melting point 185 °C (via OCHEM).
For CN(C)C(=O)c1cc2cnc(Nc3ccc(N4CCNCC4)cn3)nc2n1C1CCCC1 [Ribociclib] the data give melting point 197 °C (via eChemPortal).
For O=Cc1ccc(-c2ccc(C(=O)O)cc2)o1 [4-(5-Formyl-2-furyl)benzoic acid] the data give melting point 314 °C (via OCHEM).
For Cc1cc(C)n(-c2ccccc2N)n1 [2-(3,5-dimethyl-1H-pyrazol-1-yl)aniline] the data give melting point 82 °C (via OCHEM).
For O=C1C(=O)N(CO)c2ccccc21 [Indole-2,3-dione, 1-(hydroxymethyl)-] the data give melting point 158 °C (via OCHEM).

The 4 lowest values of melting point among the entries above:

CCCCCCCCCC(=O)OCC(C)(C)COC(=O)CCCCCCCCC [Decanoic acid, 2,2-dimethyl-1,3-propanediol diester] has melting point -2 °C (via eChemPortal).
Cc1ccc(C(=O)CBr)cc1[N+](=O)[O-] [2-bromo-1-(4-methyl-3-nitrophenyl)ethanone] has melting point 46 °C (via OCHEM).
CCC[C@H]1CC[C@H]([C@H]2CC[C@H](CC)CC2)CC1 has melting point 65.7 °C (via eChemPortal).
O=C(O)C1(c2ccc(F)cc2)CCC1 [1-(4-Fluorophenyl)cyclobutane-1-carboxylic acid] has melting point 68 °C (via OCHEM).